For this experiment, the target named is Mitogen-activated protein kinase 1 (Homo sapiens, UniProt P28482). Briefly: Test compounds were diluted in DMSO in 3-fold serial dilutions at 100× final concentrations. […] The data collected from each well was fit to a straight line, and the resulting rates were used to calculate percent of control. Percent of control was plotted against compound concentration, and IC50 values were determined using a four-parameter fit.

Amino acid sequences for entries named in this document (tags omitted).
UniProt P28482, whole entry: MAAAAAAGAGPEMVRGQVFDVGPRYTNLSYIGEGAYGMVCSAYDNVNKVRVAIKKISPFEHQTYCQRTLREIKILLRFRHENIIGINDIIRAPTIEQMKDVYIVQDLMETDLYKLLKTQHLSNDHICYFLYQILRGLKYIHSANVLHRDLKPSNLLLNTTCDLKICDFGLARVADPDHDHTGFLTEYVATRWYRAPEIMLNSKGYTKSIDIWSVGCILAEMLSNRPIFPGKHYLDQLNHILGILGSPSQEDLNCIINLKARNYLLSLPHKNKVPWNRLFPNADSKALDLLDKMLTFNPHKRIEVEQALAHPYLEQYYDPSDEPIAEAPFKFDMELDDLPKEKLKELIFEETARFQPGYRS

Each structure is given as a SMILES string.

Consider `CN1C(=O)C[C@H](Cc2ccccc2)c2nnc3cc(-c4ccnc(Nc5ccnn5C)c4)cc1n23`, for which the IC50 is 0.073 nM.

As usually defined, the IC50 is the concentration at which inhibition is half-maximal.

(Values after ChEMBL document CHEMBL5726891, “Serine/threonine kinase inhibitors” (2019).)
